The source of these data is PMC2430196, “Antagonist affinity measurements at the Gi-coupled human histamine H3 receptor expressed in CHO cells” (BMC Pharmacology, 2008).

By UniProt entry, the sequences of proteins in these tests, tags left out. Where a name states a change or a piece, a line headed by the entry shows the natural chain unless it says otherwise.
UniProt Q9Y5N1: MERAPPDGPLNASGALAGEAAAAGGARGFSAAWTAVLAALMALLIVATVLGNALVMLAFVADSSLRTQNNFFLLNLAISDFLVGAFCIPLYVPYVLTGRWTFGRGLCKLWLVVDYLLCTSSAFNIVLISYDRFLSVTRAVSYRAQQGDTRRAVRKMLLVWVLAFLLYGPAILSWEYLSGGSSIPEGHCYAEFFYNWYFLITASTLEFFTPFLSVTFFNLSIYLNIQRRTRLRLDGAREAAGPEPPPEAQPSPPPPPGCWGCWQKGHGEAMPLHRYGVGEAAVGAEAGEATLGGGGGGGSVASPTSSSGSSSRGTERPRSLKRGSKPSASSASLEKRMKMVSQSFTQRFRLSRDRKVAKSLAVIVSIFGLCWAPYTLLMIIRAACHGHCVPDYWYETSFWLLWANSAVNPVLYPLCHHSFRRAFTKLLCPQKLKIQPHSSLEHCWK

Assay [1] concerns the target T1, human histamine H3 receptor (Homo sapiens, UniProt Q9Y5N1). Briefly: cell-based.
In assay [2] the target is T1, human histamine H3 receptor. Briefly: CRE-SPAP gene transcription in forskolin-stimulated CHO-H3-SPAP cells. Conditions: pKD values.
For assay [3] the target is unchanged. Briefly: 3H-cAMP accumulation in forskolin-stimulated CHO-H3-SPAP cells. The assay is classed as cell-based. Also noted: secondarily transfected with the full length human histamine H3 receptor; host or cells: CHO-K1 cells with CRE-SPAP reporter (clonal line CHO-H3-SPAP). As to conditions: pKD.

As usually defined, the Kd is the constant that tells how readily two partners part at equilibrium. The low end stands for higher affinity, the high end for lower affinity. With `NC(=NCc1ccc(Cl)cc1)SCCCc1cnc[nH]1` [clobenpropit], the Kd in assay [1] is 0.437 nM; in assay [2] (agonist N-α-methylhistamine), 0.38 nM; in assay [2] (agonist R-α-methylhistamine) it was 0.617 nM; in assay [2] (agonist S-α-methylhistamine), 0.562 nM; in assay [2] (agonist VUF 8430), 0.776 nM; in assay [2] (agonist histamine), 0.38 nM. In addition, the Kd was 0.631 nM in assay [2] (agonist imetit); 0.617 nM in assay [2] (agonist immethridine); 0.977 nM in assay [2] (agonist impentamine (first component of the response)); 0.562 nM in assay [2] (agonist proxyfan); 0.372 nM in assay [3] (agonist N-α-methylhistamine); 0.437 nM in assay [3] (agonist R-α-methylhistamine). Moreover, the Kd in assay [3] (agonist S-α-methylhistamine) is 0.347 nM; in assay [3] (agonist VUF 5681), 0.631 nM; in assay [3] (agonist VUF 8430), 0.38 nM; in assay [3] (agonist burimamide) it was 0.562 nM; in assay [3] (agonist histamine), 0.417 nM; in assay [3] (agonist imetit) it was 0.525 nM. Further, the Kd in assay [3] (agonist immepip) was 0.457 nM; in assay [3] (agonist immethridine), 0.479 nM; in assay [3] (agonist impentamine), 0.347 nM; in assay [3] (agonist proxyfan), 0.479 nM.
